One assay concerns UGT1A9/2B7. The note with it: 96 h treatment, 100 μM substrate, 30 min.
A further assay relates to UGT1A1/1A3. The conditions noted are these: 96 h treatment, 100 μM substrate, 30 min.
A further assay deals with MRP2 (Homo sapiens, UniProt Q92887). The note with it: membrane vesicles.

Protein sequences, listed by entry. Tags and fused reporters are not part of them. Lines headed by an entry give the natural chain unless they say otherwise; changes in a name come on top.
UniProt Q92887: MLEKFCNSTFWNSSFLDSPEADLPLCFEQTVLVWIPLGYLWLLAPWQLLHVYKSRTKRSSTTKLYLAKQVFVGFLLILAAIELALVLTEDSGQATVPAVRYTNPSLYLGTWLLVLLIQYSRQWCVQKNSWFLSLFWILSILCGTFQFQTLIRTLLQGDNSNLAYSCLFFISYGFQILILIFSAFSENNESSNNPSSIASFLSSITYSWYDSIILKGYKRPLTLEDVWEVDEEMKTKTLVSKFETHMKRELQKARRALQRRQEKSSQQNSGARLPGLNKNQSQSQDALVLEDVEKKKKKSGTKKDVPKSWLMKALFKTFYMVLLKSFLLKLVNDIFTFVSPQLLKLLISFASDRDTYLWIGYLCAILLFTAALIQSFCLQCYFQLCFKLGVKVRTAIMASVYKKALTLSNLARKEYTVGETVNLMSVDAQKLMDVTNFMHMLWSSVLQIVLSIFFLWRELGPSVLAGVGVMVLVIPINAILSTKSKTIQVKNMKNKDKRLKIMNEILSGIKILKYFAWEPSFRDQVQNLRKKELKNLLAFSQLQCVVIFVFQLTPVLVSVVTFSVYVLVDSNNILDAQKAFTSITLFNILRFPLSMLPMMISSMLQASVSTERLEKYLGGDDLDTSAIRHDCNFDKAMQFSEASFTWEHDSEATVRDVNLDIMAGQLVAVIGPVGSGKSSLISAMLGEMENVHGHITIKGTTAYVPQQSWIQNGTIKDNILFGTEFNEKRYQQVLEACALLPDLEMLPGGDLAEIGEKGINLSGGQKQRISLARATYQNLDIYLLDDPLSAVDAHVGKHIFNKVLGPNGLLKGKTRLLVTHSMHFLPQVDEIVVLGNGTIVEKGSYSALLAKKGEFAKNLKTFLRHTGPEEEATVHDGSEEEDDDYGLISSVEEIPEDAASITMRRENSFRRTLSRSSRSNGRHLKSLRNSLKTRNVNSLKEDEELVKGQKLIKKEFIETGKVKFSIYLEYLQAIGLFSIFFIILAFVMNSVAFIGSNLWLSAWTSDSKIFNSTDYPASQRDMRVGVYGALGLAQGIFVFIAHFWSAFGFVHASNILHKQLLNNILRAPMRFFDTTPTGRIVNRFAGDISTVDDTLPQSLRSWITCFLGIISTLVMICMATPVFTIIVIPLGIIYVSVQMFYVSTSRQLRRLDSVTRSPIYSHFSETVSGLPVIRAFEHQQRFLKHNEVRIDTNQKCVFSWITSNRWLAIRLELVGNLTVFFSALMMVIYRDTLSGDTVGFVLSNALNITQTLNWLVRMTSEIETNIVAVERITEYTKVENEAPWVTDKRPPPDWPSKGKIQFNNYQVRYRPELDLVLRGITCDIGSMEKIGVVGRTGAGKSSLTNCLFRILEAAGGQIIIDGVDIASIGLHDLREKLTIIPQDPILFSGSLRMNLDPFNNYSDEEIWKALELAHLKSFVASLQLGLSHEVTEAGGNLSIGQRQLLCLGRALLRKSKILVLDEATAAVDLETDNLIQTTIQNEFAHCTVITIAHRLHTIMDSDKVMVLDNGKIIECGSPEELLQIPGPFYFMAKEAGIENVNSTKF

Like-named read-outs stand apart in the source and are kept apart here.

Turning to `C[C@]12C=CC(=O)C=C1CC[C@@H]1[C@@H]2[C@@H](O)C[C@@]2(C)[C@H]1CC[C@]2(O)C(=O)CO` [prednisolone], the “4-trifluoromethyl-7-hydroxycoumarin glucuronidation activity, % of NC (Mean)” value is recorded as 139 % of NC with UGT1A9/2B7 (0.5 μM); 157 % of NC with UGT1A9/2B7 (1 μM); 154 % of NC with UGT1A9/2B7 (5 μM); 154 % of NC in the assay on UGT1A9/2B7 (10 μM); 173 % of NC in the assay with UGT1A9/2B7 (50 μM); 155 % of NC with UGT1A9/2B7 (100 μM). Further, the “β-estradiol glucuronidation activity, % of NC (Mean)” value in the assay with UGT1A1/1A3 (0.5 μM) is 119 % of NC; in the assay on UGT1A1/1A3 (1 μM) it was 122 % of NC; in the assay on UGT1A1/1A3 (5 μM) it was 124 % of NC; in the assay with UGT1A1/1A3 (10 μM), 123 % of NC; in the assay on UGT1A1/1A3 (50 μM) it was 140 % of NC; in the assay with UGT1A1/1A3 (100 μM), 134 % of NC. Further, the “inhibition of MRP2-mediated MPAG uptake (in words)” value against MRP2 is listed as “not detected”.

Values taken from paper PMC11381307 (Frontiers in Pharmacology, 2024).
